Earlier results, collected in patent US20250170103A1, “4-(6-OXO-2-(TRIFLUOROMETHYL)-3,6-DIHYDROCHROMENO[7,8-D]IMIDAZOL-8-YL)BENZONITRILE FOR USE IN THE TREATMENT OF DISEASES AND CONDITIONS ASSOCIATED WITH MOVEMENT DISORDERS” (OnTrack Therapeutics Limited, priority 2022, published 2025).

Tested on: ALS patients
Conditions: several months; cited from earlier work

Compound: Nc1nc2ccc(OC(F)(F)F)cc2s1 [Riluzole, reference compound]
- prolongation of survival: ~7%
